Molecular target: T1, Aldehyde dehydrogenase, mitochondrial (Homo sapiens, UniProt P05091)
T1 sequence (P05091 whole entry): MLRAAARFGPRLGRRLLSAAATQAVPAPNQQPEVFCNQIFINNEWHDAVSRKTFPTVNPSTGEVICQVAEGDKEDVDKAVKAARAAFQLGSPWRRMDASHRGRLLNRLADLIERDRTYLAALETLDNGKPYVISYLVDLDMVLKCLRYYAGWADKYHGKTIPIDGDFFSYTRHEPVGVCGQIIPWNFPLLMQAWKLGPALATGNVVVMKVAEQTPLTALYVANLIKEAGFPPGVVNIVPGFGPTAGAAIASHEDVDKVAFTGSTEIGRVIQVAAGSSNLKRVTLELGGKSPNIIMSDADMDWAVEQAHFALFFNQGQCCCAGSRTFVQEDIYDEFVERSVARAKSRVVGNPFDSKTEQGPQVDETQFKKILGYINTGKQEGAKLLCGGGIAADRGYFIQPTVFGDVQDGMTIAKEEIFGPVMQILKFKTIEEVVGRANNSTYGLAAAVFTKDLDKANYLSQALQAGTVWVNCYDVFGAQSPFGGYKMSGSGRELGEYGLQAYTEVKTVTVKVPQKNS
Assay: Inhibition of human ALDH2 using propionaldehyde as substrate preincubated for 2 mins followed by substrate addition by spectrophotometry in presence of NAD+

`O=C1C(=O)N(C/C=C/c2ccccc2)c2ccc(Cl)cc21` was tested, and the IC50 was 100 nM.

— ChEMBL document CHEMBL3124874, “Development of selective inhibitors for aldehyde dehydrogenases based on substituted indole-2,3-diones” (J Med Chem, 2014)
